This is an account of results in publication PMC9749463 (European Journal of Pharmacology, 2021).

Protein sequences, listed by entry. Tags and fused reporters are not part of them. Lines headed by an entry give the natural chain unless they say otherwise; changes in a name come on top.
UniProt Q13936, whole entry: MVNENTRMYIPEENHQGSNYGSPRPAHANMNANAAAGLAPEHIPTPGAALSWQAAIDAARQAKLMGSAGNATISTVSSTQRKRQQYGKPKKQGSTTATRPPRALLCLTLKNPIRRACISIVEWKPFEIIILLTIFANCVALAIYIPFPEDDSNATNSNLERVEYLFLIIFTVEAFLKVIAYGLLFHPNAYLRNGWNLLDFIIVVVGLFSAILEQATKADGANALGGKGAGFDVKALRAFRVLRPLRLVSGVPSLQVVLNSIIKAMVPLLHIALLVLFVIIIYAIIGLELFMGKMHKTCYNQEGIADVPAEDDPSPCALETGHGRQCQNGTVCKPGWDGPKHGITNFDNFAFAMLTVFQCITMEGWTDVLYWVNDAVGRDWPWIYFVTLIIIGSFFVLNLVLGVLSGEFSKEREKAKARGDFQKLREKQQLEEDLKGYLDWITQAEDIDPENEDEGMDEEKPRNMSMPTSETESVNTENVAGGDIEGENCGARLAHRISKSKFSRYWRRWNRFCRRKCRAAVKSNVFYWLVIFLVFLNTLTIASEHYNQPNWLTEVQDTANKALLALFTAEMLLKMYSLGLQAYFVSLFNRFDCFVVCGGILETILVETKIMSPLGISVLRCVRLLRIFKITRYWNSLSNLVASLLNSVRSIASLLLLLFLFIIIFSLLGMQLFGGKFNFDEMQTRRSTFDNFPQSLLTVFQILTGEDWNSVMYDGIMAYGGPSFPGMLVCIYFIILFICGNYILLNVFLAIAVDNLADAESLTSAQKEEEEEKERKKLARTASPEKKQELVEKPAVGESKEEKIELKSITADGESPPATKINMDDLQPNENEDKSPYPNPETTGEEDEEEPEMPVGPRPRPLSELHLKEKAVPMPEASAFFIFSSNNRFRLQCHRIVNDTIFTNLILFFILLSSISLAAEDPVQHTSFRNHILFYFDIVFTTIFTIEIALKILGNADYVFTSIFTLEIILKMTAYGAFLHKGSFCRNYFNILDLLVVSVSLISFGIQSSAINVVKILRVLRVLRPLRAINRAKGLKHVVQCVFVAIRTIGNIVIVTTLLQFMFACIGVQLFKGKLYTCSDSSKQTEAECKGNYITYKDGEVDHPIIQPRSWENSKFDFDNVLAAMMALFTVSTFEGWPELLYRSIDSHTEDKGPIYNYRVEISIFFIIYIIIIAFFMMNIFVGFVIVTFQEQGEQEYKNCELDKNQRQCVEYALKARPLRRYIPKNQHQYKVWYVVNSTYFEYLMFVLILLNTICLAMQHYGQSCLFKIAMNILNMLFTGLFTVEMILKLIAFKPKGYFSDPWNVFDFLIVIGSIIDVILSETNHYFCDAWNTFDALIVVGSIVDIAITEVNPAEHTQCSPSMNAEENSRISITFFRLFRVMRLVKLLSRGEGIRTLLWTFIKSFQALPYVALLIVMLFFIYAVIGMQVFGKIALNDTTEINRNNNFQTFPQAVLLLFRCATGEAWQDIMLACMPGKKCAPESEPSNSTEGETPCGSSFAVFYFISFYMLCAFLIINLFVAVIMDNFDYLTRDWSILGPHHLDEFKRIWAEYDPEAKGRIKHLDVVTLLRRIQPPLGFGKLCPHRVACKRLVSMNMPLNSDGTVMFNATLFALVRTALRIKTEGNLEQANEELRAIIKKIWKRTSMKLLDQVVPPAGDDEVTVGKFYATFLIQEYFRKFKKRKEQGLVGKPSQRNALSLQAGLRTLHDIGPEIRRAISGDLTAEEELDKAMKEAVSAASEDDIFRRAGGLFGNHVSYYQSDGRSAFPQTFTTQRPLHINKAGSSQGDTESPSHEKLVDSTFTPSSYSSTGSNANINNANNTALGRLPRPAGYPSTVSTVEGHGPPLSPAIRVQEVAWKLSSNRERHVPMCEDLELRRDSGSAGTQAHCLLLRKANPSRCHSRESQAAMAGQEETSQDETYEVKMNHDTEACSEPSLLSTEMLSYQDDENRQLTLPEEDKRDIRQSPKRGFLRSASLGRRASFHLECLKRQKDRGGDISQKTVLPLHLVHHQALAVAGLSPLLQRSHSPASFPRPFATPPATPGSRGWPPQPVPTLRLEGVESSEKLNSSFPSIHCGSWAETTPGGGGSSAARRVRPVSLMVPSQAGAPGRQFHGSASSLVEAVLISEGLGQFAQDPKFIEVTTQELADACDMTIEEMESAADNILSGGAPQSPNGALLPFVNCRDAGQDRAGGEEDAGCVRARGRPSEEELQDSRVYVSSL

Structures are written as SMILES.

What is called IC50 is the concentration that inhibits the measured activity by half. Read a high IC50 as lower potency.

This test addresses CaV1.2/β2/α2δ1 (Homo sapiens, UniProt Q13936). Briefly: automated patch-clamp. Type of test: cell-based. In general terms: The patch-clamp technique gives a direct electrical read-out from membranes.

Molecule `CC(C)COCC(CN(Cc1ccccc1)c1ccccc1)N1CCCC1` (stereo not shown) [bepridil] had a 50% inhibitory concentration (IC50) of 5.2 µM.
